Measured values: article PMC5164944 (Biochemical pharmacology, 2016)

Experiment: Interconversion of bupropion enantiomers in HLM incubations
Format: in vitro ADME, human
Details: 5 minutes, 37°C

Row | Compound | interconversion of S- and R-bupropion in the incubations
1 | C[C@@H](NC(C)(C)C)C(=O)c1cccc(Cl)c1 [R-Bupropion, R-bupropion, reference compound] | < 5%
2 | C[C@H](NC(C)(C)C)C(=O)c1cccc(Cl)c1 [S-Bupropion, S-bupropion, reference compound] | < 5%
